# Earlier results in article PMC6008586, “Analysis of transition state mimicry by tight binding aminothiazoline inhibitors provides insight into catalysis by human O-GlcNAcase” (Chemical Science, 2016).
# Conditions: reference compound with known pKa
compound,measurement,value
O=[N+]([O-])c1ccc(O)cc1[N+](=O)[O-],pKa,5.42
